Experimental data reported in patent US11642369B2, “Method for enhancing expression of antioxidant in epidermis” (J-Network, Inc., priority 2020, dated 2023).

Test system: Normal human epidermal melanocytes (NHEM)
Settings: 250 μM, 24 hours, FIG. 15
Method: Normal human epidermal melanocytes (NHEM: from Kurabo Industries Ltd.) were seeded at a cell density of 2.0×10^4 cells/well in a 96-well culture plate using a medium (DermaLife (registered trademark) M Comp kit medium: from Kurabo Industries Ltd.). Subsequently, the cells were cultured at 37° C. under 5% carbon dioxide for 24 hours. […] After the culture, a cell viability was measured by the neutral red assay. A cell viability of each sample with HQ or BQ added thereto was calculated assuming that a cell viability of an additive-free control (N.C.) was 100%.

O=C1C=CC(=O)C=C1 [benzoquinone]
cytotoxicity (cell viability): exhibit cytotoxicity
